Results from ChEMBL document CHEMBL1275363, “Design, synthesis, crystal structures, and antimicrobial activity of sulfonamide boronic acids as β-lactamase inhibitors” (J Med Chem, 2010).

Amino acid sequences for entries named in this document (tags omitted). Chains listed by the source or under a name are the forms on record and can include a tag or linker.
UniProt Q9L5C7, as listed by the source: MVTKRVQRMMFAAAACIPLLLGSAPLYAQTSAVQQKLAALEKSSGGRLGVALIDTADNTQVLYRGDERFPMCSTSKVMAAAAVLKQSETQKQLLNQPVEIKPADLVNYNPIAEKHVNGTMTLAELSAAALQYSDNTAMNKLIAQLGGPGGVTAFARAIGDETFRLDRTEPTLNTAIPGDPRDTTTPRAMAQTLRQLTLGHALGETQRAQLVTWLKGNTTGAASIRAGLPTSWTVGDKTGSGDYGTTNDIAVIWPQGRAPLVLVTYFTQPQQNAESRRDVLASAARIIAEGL

What was measured:
[1] = tested on: Citrobacter freundii; experiment: Inhibition of Citrobacter freundii beta-lactamase class C assessed as fold decrease in Ceftazidime MIC […]
How it was run: (§1)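 MICs were measured on clinical isolates following CLSI guidelines in Mueller-Hinton medium. Inhibitor was dissolved in 50% DMSO, with final DMSO below 5%, and combined with ceftazidime at a 1:1 β-lactam:inhibitor ratio. Fold change is compared with ceftazidime alone. Values are means of three independent experiments.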

[2] = tested on: Pseudomonas aeruginosa; experiment: Inhibition of Pseudomonas aeruginosa beta-lactamase class C assessed as fold decrease in Ceftazidime MIC […]; how it was run: as §1
[3] = tested on: Enterobacter cloacae; experiment: Inhibition of Enterobacter cloacae beta-lactamase class C assessed as fold decrease in Ceftazidime MIC […]; how it was run: as §1
[4] = target: Beta-lactamase CTX-M-14 (Escherichia coli) (UniProt Q9L5C7); experiment: Inhibition of Escherichia coli class A beta-lactamase CTX-M-14 assessed as fold decrease in Ceftazidime MIC […]; how it was run: as §1
[5] = target: AmpC (Klebsiella pneumoniae) (UniProt Q84AD8); experiment: Inhibition of Klebsiella pneumoniae AmpC beta-lactamase DHA-1 assessed as fold decrease in Ceftazidime MIC […]; how it was run: as §1

In the case of `O=C(O)c1ccc(CS(=O)(=O)NCB(O)O)cc1`, the fold change (FC) [1] is reported as 8, the fold change (FC) [2] is reported as 8 and the fold change (FC) [3] is reported as 8. For the same molecule, the fold change (FC) [4] was 16 and the fold change (FC) [5] was 8.
